The text below walks through data of US12552765B2, “Small molecule modulators of pantothenate kinases” (ST. JUDE CHILDREN'S RESEARCH HOSPITAL, INC., priority 2016, dated 2026).

The chains behind the UniProt entries cited, without tags or fusion partners. Where a name states a change or a piece, a line headed by the entry shows the natural chain unless it says otherwise.
UniProt Q9H999: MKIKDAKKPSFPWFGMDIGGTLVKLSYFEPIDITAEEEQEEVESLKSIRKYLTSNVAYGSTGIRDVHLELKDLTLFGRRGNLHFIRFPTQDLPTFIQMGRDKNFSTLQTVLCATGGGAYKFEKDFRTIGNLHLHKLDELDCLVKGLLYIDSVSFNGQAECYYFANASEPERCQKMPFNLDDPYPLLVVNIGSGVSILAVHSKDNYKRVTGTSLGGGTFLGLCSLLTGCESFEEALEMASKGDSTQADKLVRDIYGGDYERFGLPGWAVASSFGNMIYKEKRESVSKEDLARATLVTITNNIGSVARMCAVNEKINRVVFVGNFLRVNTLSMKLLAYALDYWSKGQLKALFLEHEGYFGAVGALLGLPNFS

SMILES strings stand for the structures.

The first experiment addresses hPanK3 (Homo sapiens, UniProt Q9H999). Put plainly: Inhibition of PanK kinase activity (phosphorylation of pantothenate, purified protein). Type of experiment: biochemical.
Settings: not given
By Ki is commonly meant the dissociation constant of the complex between target and ligand, obtained from inhibition or displacement. Regarding `CC(C)c1ccc(CC(=O)N2CCN(c3ccc(C#N)cn3)CC2)cc1` [Compound 31], the Ki came to 3.6 nM. Compound `CC(C)(C)c1ccc(CC(=O)N2CCN(c3ccc(C#N)cn3)CC2)cc1` [Compound 34] showed a Ki of 43 nM. On the same count and under the same terms, the same measure for `CC(C)c1ccc(NC(=O)N2CCN(c3ccc([N+](=O)[O-])cn3)CC2)cc1` [Compound 40]: 15 nM; for `CC(C)c1ccc(CC(=O)N2CCN(c3cnc(C#N)nc3)CC2)cc1` [Compound 52]: 11 nM. Still for that read-out and setting: in the case of `CC(C)c1ccc(NC(=O)N2CCN(c3cnc(C#N)cn3)CC2)cc1` [Compound 53] it was 74 nM; in that of `CC(C)c1ccc(NC(=O)N2CCN(c3ccc(C#N)nn3)CC2)cc1` [Compound 54], 4 nM.

In turn, `CC(C)c1ccc(NC(=O)N2CCN(c3ccc(Cl)nn3)CC2)cc1` [Compound 56] gave a Ki of 0.7 nM.

Compound `CC(C)c1ccc(OC(=O)N2CCN(c3ccc(C#N)nn3)CC2)cc1` [Compound 59] returned a Ki of 10.7 nM. Still for that read-out and setting: the same measure for `CC(C)c1ccc(CC(=O)N2CCN(c3cnc(Cl)cn3)CC2)cc1` [Compound 117]: 1.8 nM.

Still in this experiment, the particulars now being: Michaelis Menten % Activity = 100/(1 + (X/IC50)).
Usually IC50 stands for the midpoint of a concentration-inhibition curve. Regarding `CC(C)c1ccc(CC(=O)N2CCN(c3ccc(C#N)cn3)CC2)cc1` [Compound 31], the IC50 came out at 122 nM.
